Assay results as given in patent publication US12171806B2, “Therapeutic regimens and methods for lowering blood glucose and/or body weight using GLP-1R and GCGR balanced agonists” (priority 2021, dated 2024).

Test: Phase 1 MAD study of ALT-801: adverse events (TEAEs), safety overview
Conditions: M1 1.2 mg ALT-801 (N = 7)

CC[C@H](C)[C@H](NC(=O)[C@H](Cc1ccccc1)NC(=O)[C@H](CCC(=O)O)NC(=O)[C@@H]1CCCCNC(=O)CC[C@H](NC(=O)[C@H](CC(=O)O)NC(=O)[C@H](CC(C)C)NC(=O)[C@H](Cc2ccc(O)cc2)NC(=O)[C@H](CCCCN)NC(=O)[C@H](CO)NC(=O)[C@H](Cc2ccc(O)cc2)NC(=O)[C@H](CC(=O)O)NC(=O)[C@H](CO)NC(=O)[C@@H](NC(=O)[C@H](Cc2ccccc2)NC(=O)[C@@H](NC(=O)CNC(=O)[C@H](CCC(N)=O)NC(=O)C(C)(C)NC(=O)[C@@H](N)Cc2c[nH]cn2)[C@@H](C)O)[C@@H](C)O)C(=O)N[C@@H](CCCCNC(=O)[C@H]2O[C@@H](OCCCCCCCCCCCCCCCCCC(=O)O)[C@H](O)[C@@H](O)[C@@H]2O)C(=O)N[C@@H](C)C(=O)N[C@@H](C)C(=O)N1)C(=O)N[C@@H](CCC(N)=O)C(=O)N[C@@H](Cc1c[nH]c2ccccc12)C(=O)N[C@@H](CC(C)C)C(=O)N[C@@H](CC(C)C)C(=O)N[C@@H](CCC(N)=O)C(=O)N[C@H](C(N)=O)[C@@H](C)O [ALT-801, pemvidutide]
TEAE Cough, maximum severity Mild, subjects n: 0
TEAE Cough, maximum severity Moderate, subjects %: (0.0%)
TEAE Cough, maximum severity Moderate, subjects n: 0
TEAE Cough, maximum severity PLT, subjects %: (0.0%)
TEAE Cough, maximum severity PLT, subjects n: 0
TEAE Cough, maximum severity Severe, subjects %: (0.0%)
TEAE Cough, maximum severity Severe, subjects n: 0
TEAE Dermatitis contact, maximum severity Mild, subjects %: (14.3%)
TEAE Dermatitis contact, maximum severity Mild, subjects n: 1
TEAE Dermatitis contact, maximum severity Moderate, subjects %: (0.0%)
TEAE Dermatitis contact, maximum severity Moderate, subjects n: 0
TEAE Dermatitis contact, maximum severity PLT, subjects %: (0.0%)
TEAE Dermatitis contact, maximum severity PLT, subjects n: 0
TEAE Dermatitis contact, maximum severity Severe, subjects %: (0.0%)
TEAE Dermatitis contact, maximum severity Severe, subjects n: 0
TEAE Eczema, maximum severity Mild, subjects %: (0.0%)
TEAE Eczema, maximum severity Mild, subjects n: 0
TEAE Eczema, maximum severity Moderate, subjects %: (0.0%)
TEAE Eczema, maximum severity Moderate, subjects n: 0
TEAE Eczema, maximum severity PLT, subjects %: (0.0%)
TEAE Eczema, maximum severity PLT, subjects n: 0
TEAE Eczema, maximum severity Severe, subjects %: (0.0%)
TEAE Eczema, maximum severity Severe, subjects n: 0
TEAE Hot flush, maximum severity Mild, subjects %: (0.0%)
TEAE Hot flush, maximum severity Mild, subjects n: 0
TEAE Hot flush, maximum severity Moderate, subjects %: (0.0%)
TEAE Hot flush, maximum severity Moderate, subjects n: 0
TEAE Hot flush, maximum severity PLT, subjects %: (0.0%)
TEAE Hot flush, maximum severity PLT, subjects n: 0
TEAE Hot flush, maximum severity Severe, subjects %: (0.0%)
TEAE Hot flush, maximum severity Severe, subjects n: 0
TEAE Menorrhagia, maximum severity PLT, subjects %: (0.0%)
TEAE Menorrhagia, maximum severity PLT, subjects n: 0
TEAE Oropharyngeal pain, maximum severity Mild, subjects %: (0.0%)
TEAE Oropharyngeal pain, maximum severity Mild, subjects n: 0
TEAE Oropharyngeal pain, maximum severity Moderate, subjects %: (0.0%)
TEAE Oropharyngeal pain, maximum severity Moderate, subjects n: 0
TEAE Oropharyngeal pain, maximum severity PLT, subjects %: (0.0%)
TEAE Oropharyngeal pain, maximum severity PLT, subjects n: 0
TEAE Oropharyngeal pain, maximum severity Severe, subjects %: (0.0%)
TEAE Oropharyngeal pain, maximum severity Severe, subjects n: 0
TEAE Papule, maximum severity Mild, subjects %: (14.3%)
TEAE Papule, maximum severity Mild, subjects n: 1
TEAE Papule, maximum severity Moderate, subjects %: (0.0%)
TEAE Papule, maximum severity Moderate, subjects n: 0
TEAE Papule, maximum severity PLT, subjects %: (0.0%)
TEAE Papule, maximum severity PLT, subjects n: 0
TEAE Papule, maximum severity Severe, subjects %: (0.0%)
TEAE Papule, maximum severity Severe, subjects n: 0
TEAE Pruritus, maximum severity Mild, subjects %: (0.0%)
TEAE Pruritus, maximum severity Mild, subjects n: 0
TEAE Pruritus, maximum severity Moderate, subjects %: (0.0%)
TEAE Pruritus, maximum severity Moderate, subjects n: 0
TEAE Pruritus, maximum severity PLT, subjects %: (0.0%)
TEAE Pruritus, maximum severity PLT, subjects n: 0
TEAE Pruritus, maximum severity Severe, subjects %: (0.0%)
TEAE Pruritus, maximum severity Severe, subjects n: 0
TEAE Rash, maximum severity Mild, subjects %: (0.0%)
TEAE Rash, maximum severity Mild, subjects n: 0
TEAE Rash, maximum severity Moderate, subjects %: (0.0%)
TEAE Rash, maximum severity Moderate, subjects n: 0
TEAE Rash, maximum severity PLT, subjects %: (0.0%)
TEAE Rash, maximum severity PLT, subjects n: 0
TEAE Rash, maximum severity Severe, subjects %: (0.0%)
TEAE Rash, maximum severity Severe, subjects n: 0
TEAE Respiratory, thoracic and mediastinal disorders, maximum severity Mild, subjects %: (0.0%)
TEAE Respiratory, thoracic and mediastinal disorders, maximum severity Mild, subjects n: 0
TEAE Respiratory, thoracic and mediastinal disorders, maximum severity Moderate, subjects %: (0.0%)
TEAE Respiratory, thoracic and mediastinal disorders, maximum severity Moderate, subjects n: 0
TEAE Respiratory, thoracic and mediastinal disorders, maximum severity PLT, subjects %: (0.0%)
TEAE Respiratory, thoracic and mediastinal disorders, maximum severity PLT, subjects n: 0
TEAE Respiratory, thoracic and mediastinal disorders, maximum severity Severe, subjects %: (0.0%)
TEAE Respiratory, thoracic and mediastinal disorders, maximum severity Severe, subjects n: 0
TEAE Skin and subcutaneous tissue disorders, maximum severity Mild, subjects %: (28.6%)
TEAE Skin and subcutaneous tissue disorders, maximum severity Mild, subjects n: 2
TEAE Skin and subcutaneous tissue disorders, maximum severity Moderate, subjects %: (0.0%)
TEAE Skin and subcutaneous tissue disorders, maximum severity Moderate, subjects n: 0
TEAE Skin and subcutaneous tissue disorders, maximum severity PLT, subjects %: (0.0%)
TEAE Skin and subcutaneous tissue disorders, maximum severity PLT, subjects n: 0
TEAE Skin and subcutaneous tissue disorders, maximum severity Severe, subjects %: (0.0%)
TEAE Skin and subcutaneous tissue disorders, maximum severity Severe, subjects n: 0
TEAE Skin lesion, maximum severity Mild, subjects %: (0.0%)
TEAE Skin lesion, maximum severity Mild, subjects n: 0
TEAE Skin lesion, maximum severity Moderate, subjects %: (0.0%)
TEAE Skin lesion, maximum severity Moderate, subjects n: 0
TEAE Skin lesion, maximum severity PLT, subjects %: (0.0%)
TEAE Skin lesion, maximum severity PLT, subjects n: 0
TEAE Skin lesion, maximum severity Severe, subjects %: (0.0%)
TEAE Skin lesion, maximum severity Severe, subjects n: 0
TEAE Vascular disorders, maximum severity Mild, subjects %: (0.0%)
